Data reported in patent US10463753B2, “Radiolabeled monoacylglycerol lipase occupancy probe” (LUNDBECK LA JOLLA RESEARCH CENTER, INC., priority 2016, dated 2019).

Chains of the proteins cited; added tags and fusions are not shown. Residues count along the entry.
UniProt H9ESL3, 1-303: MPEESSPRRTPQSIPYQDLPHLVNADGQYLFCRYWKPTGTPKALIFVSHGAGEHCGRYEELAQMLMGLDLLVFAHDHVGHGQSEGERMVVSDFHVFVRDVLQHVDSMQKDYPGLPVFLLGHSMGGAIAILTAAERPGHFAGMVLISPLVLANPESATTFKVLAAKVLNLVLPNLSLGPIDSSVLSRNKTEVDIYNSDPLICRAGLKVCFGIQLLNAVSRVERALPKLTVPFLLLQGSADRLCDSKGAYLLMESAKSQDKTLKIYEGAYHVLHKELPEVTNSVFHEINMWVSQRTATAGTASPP

Biological target: MGLL (Macaca mulatta, UniProt H9ESL3)
Assay: PET brain imaging, screening and dose occupancy (blockade) studies in rhesus monkeys

O=C(OC(C(F)(F)F)C(F)(F)F)N1CCN(Cc2ccc(C(F)(F)F)cc2N2CCCC2)CC1
MGLL enzyme occupancy in brain (0.91 mg/kg i.v., highest dose tested): 100%
ED50 for blockade of Compound 8F PET signal (brain MGLL occupancy) (i.v. over 5 min, 90 min before radiotracer, average): 0.05 mg/kg
